Measured values: US9115117B2, “Substituted piperidine compounds and their use as orexin receptor modulators” (JANSSEN PHARMACEUTICA NV, priority 2013, dated 2015)

Protein sequences, listed by entry. Tags and fused reporters are not part of them.
UniProt O43614, whole entry: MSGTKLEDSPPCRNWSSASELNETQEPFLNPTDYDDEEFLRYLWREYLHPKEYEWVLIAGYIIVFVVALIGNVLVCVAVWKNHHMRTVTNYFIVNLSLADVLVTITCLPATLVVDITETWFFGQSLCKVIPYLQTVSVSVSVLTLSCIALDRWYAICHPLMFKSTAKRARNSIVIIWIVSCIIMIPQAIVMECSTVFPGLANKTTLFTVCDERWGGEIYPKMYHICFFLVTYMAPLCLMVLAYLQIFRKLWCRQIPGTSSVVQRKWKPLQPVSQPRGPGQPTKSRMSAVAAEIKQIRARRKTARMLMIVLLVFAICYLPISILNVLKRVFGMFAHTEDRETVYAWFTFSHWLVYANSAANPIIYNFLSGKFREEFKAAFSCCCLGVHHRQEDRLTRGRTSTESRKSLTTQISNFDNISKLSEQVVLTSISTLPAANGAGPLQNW

What was measured:
[1] = molecular target: rat orexin 1 receptor (Rattus norvegicus, UniProt P56718); experiment: Rat orexin 1 receptor radioligand binding; conditions: HEK293 cells stably expressing rat orexin 1 receptor; apparent Ki; read-out: rOX1 Ki
Procedure: After centrifugation (2K×G, 5 min at 4° C.), the supernatant was aspirated and the pellets frozen and stored at −80° C. […] Each cell pellet from a 15 cm plate was resuspended in 10 mL, stored on ice, and homogenized for 45 sec prior to addition to the reactions. Competition binding experiments in 96 well polypropylene plates were performed using [^3H]-(1-(5-(2-fluoro-phenyl)-2-methyl-thiazol-4-yl)-1-((S)-2-(5-phenyl-(1,3,4)oxadiazol-2-ylmethyl)-pyrrolidin-1-yl)-methanone) (Moraveck Corporation, specific activity=35.3 Ci/mmol), diluted to a 10 nM concentration in PBS (4 nM final). […] The final concentration of DMSO in the reactions is equal to or less than 0.1%. Total and nonspecific binding was determined in the absence and presence of 10 μM almorexant. The total volume of each reaction is 200 μL (20 μL of diluted compounds, 80 μL of [3H]-(1-(5-(2-fluoro-phenyl)-2-methyl-thiazol-4-yl)-1-((S)-2-(5-phenyl-(1,3,4)oxadiazol-2-ylmethyl)-pyrrolidin-1-yl)-methanone) diluted in PBS and 100 μL of the cell suspension). […] The plates were washed 3 times by aspirating 30 ml PBS through the plates. Plates were dried in 55° C. oven for 60 min, scintillation fluid was added, and the radioactivity was counted on a Topcount (Packard).

[2] = molecular target: human orexin 2 receptor (Homo sapiens (Human), UniProt O43614); experiment: Human orexin 2 receptor radioligand binding ([3H]-EMPA); conditions: HEK293 stably expressing human orexin 2 receptor, apparent Ki, read-out: hOX2 Ki
Procedure: After centrifugation (2K×G, 5 min at 4° C.), the supernatant was aspirated and the pellets frozen and stored at −80° C. […] Each cell pellet from a 15 cm plate was resuspended in 10 mL, stored on ice, and homogenized for 45 sec just prior to addition to the reactions. Competition binding experiments in 96 well polypropylene plates were performed using [^3H]-EMPA (Moraveck Corporation, specific activity=29.6 Ci/mmol), diluted to a 5 nM concentration in PBS (2 nM final concentration). […] The final concentration of DMSO in the reactions is equal to or less than 0.1%. Total and nonspecific binding was determined in the absence and presence of […]. The total volume of each reaction is 200 μL (20 μL of diluted compounds, 80 μL of [^3H]-EMPA diluted in PBS and 100 μL of the cell suspension).
The plates were washed 3 times by aspirating 30 ml PBS through the plates. Plates were dried in 55° C. oven for 60 min, scintillation fluid was added, and the radioactivity was counted on a Topcount (Packard).

[3] = molecular target: human orexin 1 receptor (Homo sapiens, UniProt O43613); experiment: Human orexin 1 receptor radioligand binding; conditions: CHO cells stably expressing human orexin 1 receptor; apparent Ki; read-out: hOX1 Ki
Procedure: The in vitro affinity of the compounds of the invention for the rat/human orexin 1 and human orexin 2 receptors was determined by competitive radioligand binding using [^3H](1-(5-(2-fluoro-phenyl)-2-methyl-thiazol-4-yl)-1-((S)-2-(5-phenyl-(1,3,4)oxadiazol-2-ylmethyl)-pyrrolidin-1-yl)-methanone)(Langmead et al., 2004) and [^3H]EMPA (n-ethyl-2[96-methoxy-pyridin-3-yl)-(toluene-2-sulfonyl)-amino]-N-pyridin-3-ylmethyl acetamide), respectively (Langmead et al., 2004, British Journal of Pharmacology 141:340-346; Malherbe et al., 2004, British Journal of Pharmacology 156:1326-41).
Human Embryonic Kidney 293 cells (HEK293) stably expressing rat orexin 1 receptor (Genebank accession number NM_001525) or Chinese ovary cells (CHO) stably expressing human orexin 1 receptor (Genebank accession number NM_001526) were grown to confluency in DMEM (Hyclone, cat #SH30022), 10% FBS, 1× Pen/Strep, 1× sodium pyruvate, 10 mM HEPES, 600 µg/mL G418 and DMEM/F12 (Gibco, Cat #11039), 10% FBS, 1× Pen/Strep, 600 µg/mL G418 media, respectively on 150 cm^2 tissue culture plates, washed with 5 mM EDTA in PBS (HyClone Dulbecco's Phoshpate Buffered Saline 1× with Calcium and Magnesium, Cat #SH30264.01, hereafter referred to simply as PBS) and scraped into 50 ml tubes. […] Total and nonspecific binding was determined in the absence and presence of 10 μM almorexant. […]

| SMILES | Ki [1] [µM] | Ki [2] [µM] | Ki [3] [µM] |
| --- | --- | --- | --- |
| CCOc1ccccc1C(=O)N1CCC[C@@H](Nc2nccc(-c3ccccc3)n2)[C@H]1C (racemic) [Example 68, (±)-cis-(2-ethoxyphenyl)(2-methyl-3-((4-phenylpyrimidin-2-yl)amino)piperidin-1-yl)methanone] | 1.4 |  |  |
| COc1c(F)cccc1C(=O)N1CCC[C@@H](Nc2ccc(Br)cn2)[C@H]1C (racemic) [Example 58, (±)-cis-(3-(5-bromopyridin-2-yl)amino)-2-methylpiperidin-1-yl)(3-fluoro-2-methoxyphenyl)methanone] | > 10 | > 10 |  |
| COc1c(F)cccc1C(=O)N1CCC[C@@H](Nc2nccc(-c3ccccc3)n2)[C@@H]1C (racemic) [Example 52, (±)-trans-(3-fluoro-2-methoxyphenyl)(2-methyl-3-((4-phenylpyrimidin-2-yl)amino)piperidin-1-yl)methanone] | 6.2 |  |  |
| Cc1ccc(-n2nccn2)c(C(=O)N2CCC[C@@H](Nc3ccc(C(F)(F)F)cn3)[C@@H]2C)n1 [Example 87, ((2S,3R)-2-methyl-3-((5-(trifluoromethyl)pyridin-2-yl)amino)piperidin-1-yl)(6-methyl-3-(2H-1,2,3-triazol-2-yl)pyridin-2-yl)methanone] | 0.007 | 0.154 | 0.012 |
| C[C@H]1[C@H](Nc2ccc(Cl)cn2)CCCN1C(=O)c1ccccc1-n1nccn1 [Example 100, (2-(2H-1,2,3-triazol-2-yl)phenyl)((2S,3R)-3-((5-chloropyridin-2-yl)amino)-2-methylpiperidin-1-yl)methanone] | 0.008 |  |  |
| C[C@@H]1[C@H](Nc2ccc(Br)cn2)CCCN1C(=O)c1ccccc1-n1nccn1 (racemic) [Example 57, (±)-cis-(2-(2H-1,2,3-triazol-2-yl)phenyl)(3-((5-bromopyridin-2-yl)amino)-2-methylpiperidin-1-yl)methanone] |  | > 10 |  |

Now from value to compound, other results behind:

| Ki [1] [µM] | SMILES | Ki [2] [µM] | Ki [3] [µM] |
| --- | --- | --- | --- |
| 0.715 | CCOc1ccccc1C(=O)N1CCC[C@@H](Nc2nccc(-c3ccccc3)n2)[C@@H]1C (racemic) [Example 53, (±)-trans-(2-ethoxyphenyl)(2-methyl-3-((4-phenylpyrimidin-2-yl)amino)piperidin-1-yl)methanone] |  |  |
| 0.715 | COc1c(F)cccc1C(=O)N1CCC[C@@H](Nc2ccc(Br)cn2)[C@@H]1C (racemic) [Example 43, (±)-trans-(3-((5-bromopyridin-2-yl)amino)-2-methylpiperidin-1-yl)(3-fluoro-2-methoxyphenyl)methanone] | 4.6 |  |
| 0.57 | C[C@@H]1[C@H](Nc2nccc(-c3ccccc3)n2)CCCN1C(=O)c1ccccc1-n1nccn1 (racemic) [Example 66, (±)-cis-(2-(2H-1,2,3-triazol-2-yl)phenyl)(2-methyl-3-((4-phenylpyrimidin-2-yl)amino)piperidin-1-yl)methanone] |  |  |
| 0.341 | C[C@H]1[C@H](Nc2nccc(-c3ccccc3)n2)CCCN1C(=O)c1ccccc1-n1nccn1 (racemic) [Example 51, (±)-trans-(2-(2H-1,2,3-triazol-2-yl)phenyl)(2-methyl-3-((4-phenylpyrimidin-2-yl)amino)piperidin-1-yl)methanone] |  |  |
| 0.84 | COc1c(F)cccc1C(=O)N1CCC[C@@H](Nc2nccc(-c3ccccc3)n2)[C@H]1C (racemic) [Example 67, (±)-cis-(3-fluoro-2-methoxyphenyl)(2-methyl-3-((4-phenylpyrimidin-2-yl)amino)piperidin-1-yl)methanone] |  |  |
